Reference: ChEMBL document CHEMBL5584236, “Development of novel bisphenol derivatives with a membrane-targeting mechanism as potent gram-positive antibacterial agents” (Eur J Med Chem, 2024)

Columns and labels:
Format in all cases: functional
Conditions in all cases: time 22-24 hrs
Escherichia coli = assay: Antibacterial activity against Escherichia coli ATCC25922 assessed as reduction in microbial growth incubated for 22 to 24 hrs by CLSI based broth microdilution method
Staphylococcus aureus [1] = assay: Antibacterial activity against methicillin-resistant Staphylococcus aureus N315 assessed as reduction in microbial growth incubated for 22 to 24 hrs by CLSI based broth microdilution method
Staphylococcus aureus [2] = assay: Antibacterial activity against methicillin-resistant Staphylococcus aureus NCTC10442 assessed as reduction in microbial growth incubated for 22 to 24 hrs by CLSI based broth microdilution method
Staphylococcus aureus [3] = assay: Antibacterial activity against Staphylococcus aureus ATCC29213 assessed as reduction in microbial growth incubated for 22 to 24 hrs by CLSI based broth microdilution method

CC[C@H](C)[C@H](NC(=O)CN)C(=O)NCC(=O)N[C@@H](C)C(=O)N[C@H](C(=O)N[C@@H](CC(C)C)C(=O)N[C@@H](CCCCN)C(=O)N[C@H](C(=O)N[C@@H](CC(C)C)C(=O)N[C@H](C(=O)N[C@H](C(=O)NCC(=O)N[C@@H](CC(C)C)C(=O)N1CCC[C@H]1C(=O)N[C@@H](C)C(=O)N[C@@H](CC(C)C)C(=O)N[C@H](C(=O)N[C@@H](CO)C(=O)N[C@@H](Cc1c[nH]c2ccccc12)C(=O)N[C@H](C(=O)N[C@@H](CCCCN)C(=O)N[C@@H](CCCNC(=N)N)C(=O)N[C@@H](CCCCN)C(=O)N[C@@H](CCCNC(=N)N)C(=O)N[C@@H](CCC(N)=O)C(=O)N[C@@H](CCC(N)=O)C(N)=O)[C@@H](C)CC)[C@@H](C)CC)[C@@H](C)O)[C@@H](C)O)C(C)C)C(C)C [MELITTIN]
MIC (Escherichia coli): 3.12 µg/mL
MIC (Staphylococcus aureus [1]): 3.12 µg/mL
MIC (Staphylococcus aureus [2]): 1.56 µg/mL
MIC (Staphylococcus aureus [3]): 3.12 µg/mL
